# Experimental data as given in PubChem BioAssay AID2662 (National Center for Advancing Translational Sciences (NCATS), 2010).
# Sequences of proteins named here, by UniProt entry; tags and fusion partners are left off.
# UniProt Q03164, whole entry, looked up: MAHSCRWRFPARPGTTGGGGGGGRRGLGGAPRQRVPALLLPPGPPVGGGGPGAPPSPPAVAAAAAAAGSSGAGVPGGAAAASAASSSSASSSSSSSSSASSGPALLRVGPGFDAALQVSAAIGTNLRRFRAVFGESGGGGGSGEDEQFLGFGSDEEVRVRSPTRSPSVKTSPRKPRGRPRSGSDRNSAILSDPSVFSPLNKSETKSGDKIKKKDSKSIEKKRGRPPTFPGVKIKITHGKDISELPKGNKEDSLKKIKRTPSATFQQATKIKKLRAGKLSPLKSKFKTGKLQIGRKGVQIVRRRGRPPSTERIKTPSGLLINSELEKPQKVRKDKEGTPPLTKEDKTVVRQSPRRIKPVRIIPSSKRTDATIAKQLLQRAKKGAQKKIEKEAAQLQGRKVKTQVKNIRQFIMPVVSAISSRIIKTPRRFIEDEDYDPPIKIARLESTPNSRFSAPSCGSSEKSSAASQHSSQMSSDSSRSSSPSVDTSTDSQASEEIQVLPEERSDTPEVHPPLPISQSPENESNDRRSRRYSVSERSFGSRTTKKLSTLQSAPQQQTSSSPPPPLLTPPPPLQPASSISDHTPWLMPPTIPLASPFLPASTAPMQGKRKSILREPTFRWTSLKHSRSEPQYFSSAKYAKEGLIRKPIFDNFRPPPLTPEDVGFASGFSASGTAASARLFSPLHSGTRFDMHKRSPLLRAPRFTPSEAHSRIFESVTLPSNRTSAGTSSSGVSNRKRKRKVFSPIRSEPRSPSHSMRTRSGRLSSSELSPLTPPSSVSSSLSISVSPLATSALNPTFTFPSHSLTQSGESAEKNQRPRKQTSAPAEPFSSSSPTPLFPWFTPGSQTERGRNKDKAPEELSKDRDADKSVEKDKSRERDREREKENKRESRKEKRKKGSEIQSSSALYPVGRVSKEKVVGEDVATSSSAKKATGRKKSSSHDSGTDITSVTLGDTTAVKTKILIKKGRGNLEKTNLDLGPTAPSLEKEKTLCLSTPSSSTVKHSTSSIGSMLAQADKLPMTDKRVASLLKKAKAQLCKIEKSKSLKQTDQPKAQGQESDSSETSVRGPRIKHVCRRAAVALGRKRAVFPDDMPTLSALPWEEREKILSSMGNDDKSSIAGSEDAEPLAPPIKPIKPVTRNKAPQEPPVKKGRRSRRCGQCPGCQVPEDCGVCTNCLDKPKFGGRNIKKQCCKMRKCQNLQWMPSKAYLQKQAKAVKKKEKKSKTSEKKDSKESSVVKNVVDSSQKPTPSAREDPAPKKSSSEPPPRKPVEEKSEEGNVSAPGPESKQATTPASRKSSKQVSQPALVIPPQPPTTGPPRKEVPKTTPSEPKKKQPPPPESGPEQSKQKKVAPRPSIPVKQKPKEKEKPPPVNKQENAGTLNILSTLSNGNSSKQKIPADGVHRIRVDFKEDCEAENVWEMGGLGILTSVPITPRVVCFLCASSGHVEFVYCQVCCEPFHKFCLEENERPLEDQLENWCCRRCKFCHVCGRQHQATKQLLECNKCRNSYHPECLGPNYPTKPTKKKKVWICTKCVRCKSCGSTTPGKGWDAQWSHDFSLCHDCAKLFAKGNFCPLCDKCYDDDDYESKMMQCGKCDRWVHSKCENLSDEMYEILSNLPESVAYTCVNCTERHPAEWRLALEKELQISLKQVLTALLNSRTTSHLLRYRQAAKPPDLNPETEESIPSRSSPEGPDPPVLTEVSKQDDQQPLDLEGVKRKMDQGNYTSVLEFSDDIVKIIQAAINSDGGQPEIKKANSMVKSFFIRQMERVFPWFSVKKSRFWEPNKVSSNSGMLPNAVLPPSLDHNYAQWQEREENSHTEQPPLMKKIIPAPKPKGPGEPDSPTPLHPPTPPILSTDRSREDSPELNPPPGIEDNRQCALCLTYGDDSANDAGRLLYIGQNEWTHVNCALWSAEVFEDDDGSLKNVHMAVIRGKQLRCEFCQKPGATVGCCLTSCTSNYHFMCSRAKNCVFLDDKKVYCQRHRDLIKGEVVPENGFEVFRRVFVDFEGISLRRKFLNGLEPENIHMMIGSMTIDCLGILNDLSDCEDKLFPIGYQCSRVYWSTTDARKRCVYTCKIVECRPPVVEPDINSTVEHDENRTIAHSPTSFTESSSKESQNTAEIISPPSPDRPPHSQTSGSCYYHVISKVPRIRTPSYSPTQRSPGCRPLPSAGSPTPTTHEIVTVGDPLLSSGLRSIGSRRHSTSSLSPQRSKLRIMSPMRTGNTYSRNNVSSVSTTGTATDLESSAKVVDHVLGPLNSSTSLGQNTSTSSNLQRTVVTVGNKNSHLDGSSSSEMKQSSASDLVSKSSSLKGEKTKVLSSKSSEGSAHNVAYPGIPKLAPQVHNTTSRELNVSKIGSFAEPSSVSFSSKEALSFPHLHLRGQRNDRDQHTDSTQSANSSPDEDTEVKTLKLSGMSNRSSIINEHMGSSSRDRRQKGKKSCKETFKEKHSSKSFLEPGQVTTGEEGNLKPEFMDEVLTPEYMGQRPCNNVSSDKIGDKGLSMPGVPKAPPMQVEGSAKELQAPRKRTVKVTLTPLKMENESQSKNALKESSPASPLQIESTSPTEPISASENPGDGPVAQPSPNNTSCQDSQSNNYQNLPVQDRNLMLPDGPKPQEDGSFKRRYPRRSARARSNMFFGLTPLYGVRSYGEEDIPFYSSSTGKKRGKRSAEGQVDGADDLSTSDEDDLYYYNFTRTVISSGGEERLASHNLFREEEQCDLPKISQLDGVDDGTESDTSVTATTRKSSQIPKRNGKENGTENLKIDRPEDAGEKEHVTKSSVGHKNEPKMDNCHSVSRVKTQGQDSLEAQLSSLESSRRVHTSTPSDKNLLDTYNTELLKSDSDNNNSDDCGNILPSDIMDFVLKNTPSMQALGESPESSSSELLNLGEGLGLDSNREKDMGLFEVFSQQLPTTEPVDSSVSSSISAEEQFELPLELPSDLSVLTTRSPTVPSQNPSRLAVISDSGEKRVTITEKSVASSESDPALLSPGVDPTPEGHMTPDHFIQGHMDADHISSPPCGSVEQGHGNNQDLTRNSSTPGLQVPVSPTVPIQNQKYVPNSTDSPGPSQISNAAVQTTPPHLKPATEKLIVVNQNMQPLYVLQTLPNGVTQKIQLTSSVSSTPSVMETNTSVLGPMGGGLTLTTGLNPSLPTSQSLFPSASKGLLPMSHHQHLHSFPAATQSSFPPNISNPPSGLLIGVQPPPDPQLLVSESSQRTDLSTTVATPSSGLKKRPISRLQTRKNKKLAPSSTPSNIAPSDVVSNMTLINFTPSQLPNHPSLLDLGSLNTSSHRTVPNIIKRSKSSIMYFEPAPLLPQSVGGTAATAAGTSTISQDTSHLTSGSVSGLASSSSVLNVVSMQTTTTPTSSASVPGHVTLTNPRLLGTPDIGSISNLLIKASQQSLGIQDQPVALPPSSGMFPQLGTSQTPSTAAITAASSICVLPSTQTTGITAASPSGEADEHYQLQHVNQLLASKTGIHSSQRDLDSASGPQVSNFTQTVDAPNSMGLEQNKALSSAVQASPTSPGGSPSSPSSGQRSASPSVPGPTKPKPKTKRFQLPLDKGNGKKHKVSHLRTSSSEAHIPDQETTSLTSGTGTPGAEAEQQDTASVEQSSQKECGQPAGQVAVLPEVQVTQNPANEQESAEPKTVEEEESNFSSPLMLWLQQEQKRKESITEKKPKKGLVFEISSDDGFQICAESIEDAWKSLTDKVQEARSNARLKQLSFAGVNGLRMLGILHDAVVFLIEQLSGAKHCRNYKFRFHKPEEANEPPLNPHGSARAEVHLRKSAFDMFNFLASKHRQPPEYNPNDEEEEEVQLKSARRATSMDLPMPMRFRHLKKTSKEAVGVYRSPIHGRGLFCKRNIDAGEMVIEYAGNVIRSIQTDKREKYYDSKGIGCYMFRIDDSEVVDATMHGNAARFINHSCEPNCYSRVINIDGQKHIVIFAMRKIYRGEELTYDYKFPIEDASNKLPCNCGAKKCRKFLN
# Out of some 290,000 compounds screened, about 110 (0.038%) were called active. These results got no clear call from the source, so the numbers are uncertain. The call rests on the fitted dose curve; in most records, active means well fitted inhibition curve with a large enough effect in the polarisation, with a control signal flat (not every such curve was filed as active); inconclusive means small, poorly fitted or top-dose-only effect, or effect the other way, or a change in a side signal; inactive means no such curve, though single readings can be large or run the other way; the % refers to the polarisation.
# Target: Histone-lysine N-methyltransferase 2A (Homo sapiens) (UniProt Q03164)
# Assay: qHTS Fluorescence Polarization Assay for Inhibitors of MLL CXXC domain - DNA interaction
# Conditions: MLL-CXXC / FITC-HOXA9 DNA fluorescence polarization
# Potency means the concentration at half of the fitted maximal effect.
row,Structure (SMILES),Potency
1,CCc1nc2c(n1)c1c(non1O)c1c2no[n+]1[O-],inconclusive: 44.7 µM
2,CC(=O)Nc1ccc([As](=O)(O)O)cc1,inconclusive: 89.1 µM
3,O=c1c2cc([N+](=O)[O-])ccc2[nH]c2c([N+](=O)[O-])cc([N+](=O)[O-])cc12,inconclusive: 14.1 µM
4,O=C(O)COc1ccc([As](=O)(O)O)cc1[N+](=O)[O-],inconclusive: 1.26 µM
5,CS(=O)(=O)c1cc([N+](=O)[O-])c2no[n+]([O-])c2c1,inconclusive: 11.2 µM
